Assay results from ChEMBL document CHEMBL5518194, “An 19F NMR fragment-based approach for the discovery and development of BRCA2-RAD51 inhibitors to pursuit synthetic lethality in combination with PARP inhibition in pancreatic cancer” (Eur J Med Chem, 2024).

How the values were obtained:
[1] = physchem; conditions: PBS, pH 7.4
[2] = in vitro; conditions: human, H6037 cells

With `O=c1cc(-c2cccc(Br)c2)[nH]c2cc(C(F)(F)F)nn12` the solubility kinetic at 24 h [1] was > 250 µM and the inhibition at 144 h, 30 µM [2] was ≤ 20%.
